The assay has as its target Non-receptor tyrosine-protein kinase TYK2 (Homo sapiens, UniProt P29597). The assay can be described thus: Inhibition of TYK2 (unknown origin).

The chains behind the UniProt entries cited, without tags or fusion partners. Where a name states a change or a piece, a line headed by the entry shows the natural chain unless it says otherwise.
UniProt P29597: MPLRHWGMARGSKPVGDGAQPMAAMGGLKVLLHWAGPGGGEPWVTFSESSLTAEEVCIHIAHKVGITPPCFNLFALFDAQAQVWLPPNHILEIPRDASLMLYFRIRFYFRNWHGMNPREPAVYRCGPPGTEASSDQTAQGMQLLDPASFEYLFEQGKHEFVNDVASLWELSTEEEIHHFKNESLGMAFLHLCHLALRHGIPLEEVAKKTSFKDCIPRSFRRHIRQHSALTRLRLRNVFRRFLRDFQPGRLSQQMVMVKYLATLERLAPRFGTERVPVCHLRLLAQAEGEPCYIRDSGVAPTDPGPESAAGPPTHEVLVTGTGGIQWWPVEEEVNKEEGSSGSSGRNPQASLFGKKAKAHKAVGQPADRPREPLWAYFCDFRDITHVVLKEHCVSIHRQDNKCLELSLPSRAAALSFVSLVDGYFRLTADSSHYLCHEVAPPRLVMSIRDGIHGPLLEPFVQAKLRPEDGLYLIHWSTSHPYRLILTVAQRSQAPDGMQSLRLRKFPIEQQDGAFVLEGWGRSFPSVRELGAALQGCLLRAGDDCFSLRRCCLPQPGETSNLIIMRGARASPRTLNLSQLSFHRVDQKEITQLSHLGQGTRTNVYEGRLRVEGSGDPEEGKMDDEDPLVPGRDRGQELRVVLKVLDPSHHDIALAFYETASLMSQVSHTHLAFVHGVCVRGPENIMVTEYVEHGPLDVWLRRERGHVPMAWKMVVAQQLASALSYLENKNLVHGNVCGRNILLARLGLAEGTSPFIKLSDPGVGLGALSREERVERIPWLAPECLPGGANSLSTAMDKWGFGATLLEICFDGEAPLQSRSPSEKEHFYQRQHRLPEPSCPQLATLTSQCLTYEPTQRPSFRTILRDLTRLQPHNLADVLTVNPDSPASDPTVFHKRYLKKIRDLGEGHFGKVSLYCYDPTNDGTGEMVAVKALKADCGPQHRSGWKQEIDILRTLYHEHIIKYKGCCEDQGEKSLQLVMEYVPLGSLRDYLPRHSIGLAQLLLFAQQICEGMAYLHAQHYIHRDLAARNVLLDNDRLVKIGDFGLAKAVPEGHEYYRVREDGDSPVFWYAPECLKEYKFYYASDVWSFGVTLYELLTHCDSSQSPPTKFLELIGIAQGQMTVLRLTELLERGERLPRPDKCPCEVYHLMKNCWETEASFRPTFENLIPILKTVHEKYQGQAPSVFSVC

From ChEMBL document CHEMBL2390952, “Novel triazolo-pyrrolopyridines as inhibitors of Janus kinase 1” (Bioorg Med Chem Lett, 2013) come the findings set out here.

`N#CCCN[C@H]1CC[C@H](n2nnc3cnc4[nH]ccc4c32)CC1` displayed a Ki of 0.08 µM.

As a reminder, the Ki is the dissociation constant of the complex between target and ligand, obtained from inhibition or displacement.
